These results are taken from patent US8552176B2 (priority 2010, dated 2013).

Common to all, as to test: Cell proliferation assay (GI50 cytotoxicity)
What all share (assay type): cell-based, human

For assay [1], the system named is A549. To be noted: read-out: GI50 A549 lung (+p53), 7 d incubation.
Assay [2] concerns DU-145. To be noted: read-out: GI50 DU-145 prostate, 7 d incubation.
Assay [3] relates to H1299. To be noted: read-out: GI50 H1299 lung (−p53), 7 d incubation.
Assay [4] has as its system HCT-15. To be noted: read-out: GI50 HCT-15 colorectal, 7 d incubation.
The test system of assay [5] is HT29. To be noted: read-out: GI50 HT29 colorectal, 7 d incubation.
Assay [6] concerns Hep3b. To be noted: read-out: GI50 Hep3b liver, 7 d incubation.
Assay [7] has as its system MCF7. To be noted: read-out: GI50 MCF7 breast, 7 d incubation.
The subject of assay [8] is NCI-H460. To be noted: read-out: GI50 NCI-H460 lung, 7 d incubation.
The subject of assay [9] is SF-268. To be noted: read-out: GI50 SF-268 CNS, 7 d incubation.
Assay [10] relates to SKOV3. To be noted: read-out: GI50 SKOV3 ovary, 7 d incubation.

Take `CONCCCCc1ccc(N(CCCl)CCCl)cc1`: the GI50 is 3.2 µM in assay [1]; 3.2 µM in assay [2]; 1.8 µM in [3]; 1.1 µM in assay [4]; 2.3 µM in assay [5]; 2.3 µM in assay [6]. In addition, the GI50 in assay [7] is 1.9 µM; in assay [8], 4.4 µM; in assay [9] it was 1.7 µM; in [10] it was 2.9 µM.
With `NNC(=O)CCCc1ccc(N(CCCl)CCCl)cc1`, the 50% growth inhibitory concentration (GI50) in assay [1] turned out to be 4.3 µM; in [2], 4.8 µM; in assay [3] it was 1.3 µM; in assay [4], 3 µM; in [5], 4.2 µM; in assay [6], 3.1 µM. Also, the GI50 in assay [7] stood at 2.3 µM; in assay [8] it was 6.9 µM; in assay [9], 1.5 µM; in assay [10], 4.3 µM.
